Experimental data as given in ChEMBL document CHEMBL5247635 (Eur J Med Chem, 2022).

Columns and labels:
[1] = Selectivity ratio of IC50 for inhibition of HIS-tagged recombinant Trypanosoma brucei TryR oxidoreductase activity expressed in Escherichia coli to IC50 for inhibition of HIS-tagged recombinant Leishmania infantum TryR oxidoreductase activity expressed in Escherichia coli
[2] = Selectivity ratio of IC50 for inhibition of HIS-tagged recombinant Trypanosoma cruzi TryR oxidoreductase activity expressed in Escherichia coli to IC50 for inhibition of HIS-tagged recombinant Leishmania infantum TryR oxidoreductase activity expressed in Escherichia coli
[3] = biological target: Trypanothione reductase (Leishmania infantum) (UniProt A4HSF7); assay: Disruption of HIS-FLAG-tagged recombinant Leishmania infantum TryR dimerization expressed in Escherichia coli Rossetta BL21 (DE3) cells at 75 uM incubated for 16 hrs by ELISA analysis relative to control

| Compound | Ratio IC50 [1] | Ratio IC50 [2] | inhibition [3] |
| --- | --- | --- | --- |
| C[n+]1nn(-c2ccc(-c3nc(CCc4ccc5ccccc5c4)cs3)c(OCCN3CCNC3=O)c2)cc1CCCCN.O=C(O)C(F)(F)F.O=S(=O)([O-])C(F)(F)F | 1.5 | 3 | 29% |
| C[n+]1nn(-c2ccc(-c3nc(CCc4ccc(-c5ccccc5)cc4)cs3)c(OCCN3CCNC3=O)c2)cc1CCCCN.O=C(O)C(F)(F)F.O=S(=O)([O-])C(F)(F)F | 1.5 | 3 | – |
